We go through two compounds from PMC6404402, “Design of indole- and MCR-based macrocycles as p53-MDM2 antagonists” (Beilstein Journal of Organic Chemistry, 2019).

The term Kd denotes the free concentration of one partner at which half of the binding sites on the other are occupied at equilibrium, for simple one-to-one binding. A word on the Ki: it is the equilibrium dissociation constant of an inhibitor or competing ligand from its target.

Each structure is given as a SMILES string.

For assay [1], the target named is 15N-labeled MDM2 (N-terminal domain of human MDM2, residues 1-118) (Homo sapiens, UniProt Q00987). Put plainly: 1H,15N HSQC NMR titration of 15N-labeled MDM2. Format: binding. To be noted: read-out: Kd MDM2; 1H,15N HSQC titration, 7–9 ligand/protein ratios 0 to 5; 0.20–0.35 mM 15N MDM2; 50 mM phosphate pH 7.4, 150 mM NaCl, 5 mM DTT, 10% D2O; 300K; 50 mM ligand stock in DMSO; weighted mean of KD's of most perturbed residues in fast chemical exchange.

The target in assay [2] is human MDM2 (residues 1-118) (Homo sapiens, UniProt Q00987). Put plainly: Fluorescence polarization (FP) competition binding assay. As to conditions: read-out: Ki MDM2; FP competition with 10 nM 5'FAM-LTFEHYWAQLTS (P2); MDM2 (1–118) at concentration yielding f0 = 0.8; 50 mM NaCl, 10 mM Tris pH 8.0, 1 mM EDTA, 5% DMSO; 15 min after mixing; room temperature; 485 nm excitation, 535 nm emission; n.a. = no activity against MDM2 protein.

Consider `CC(C)(C)NC(=O)C(c1c[nH]c2cc(Cl)ccc12)N1CCCCCCCCCCNC(=O)COCC1=O` (stereo not shown), for which the Kd in assay [1] was 4.8 µM. Besides, in assay [2], the inhibition constant Ki was determined as 5.49 µM.
Take `CC(C)(C)NC(=O)C(c1c[nH]c2cc(Cl)ccc12)N1CCCCCCCCNC(=O)COCC1=O` (stereo not shown): in assay [1], the dissociation constant (Kd) came out at 12.1 µM. Besides, in assay [2], the Ki came out at 2.25 µM.
